## Antibody variant affinities, Ab-14 light chain, assay B

Reference: Li et al. 2023, doi:10.1038/s41467-023-39022-2. File: FLAb, binding data.

Binding partner: SARS-CoV-2 spike HR2 peptide, sequence PDVDLGDISGINAS.

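The parent was found by panning a naive human phage display library on the peptide. This is the validation round: designs drawn from the data on random variants, tested in the same kind of assay. Several design methods are mixed in this list. Affinity was read by AlphaSeq, a pooled yeast mating assay with surface-displayed partners. Binding brings cells together so that they mate, and sequencing counts the barcode pairs among the diploids. Scores were corrected for input abundance and mapped to Kd with protein pairs of known affinity run in the same pool. There are six technical replicates.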

The variants keep the heavy chain, the linker and the frameworks of Ab-14 (scFv order VH, a 15-residue (Gly4Ser)3 linker, VL).
VH: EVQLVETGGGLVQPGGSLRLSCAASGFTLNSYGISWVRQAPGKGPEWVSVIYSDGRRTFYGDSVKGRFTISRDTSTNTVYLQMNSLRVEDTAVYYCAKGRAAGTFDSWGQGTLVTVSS
VL: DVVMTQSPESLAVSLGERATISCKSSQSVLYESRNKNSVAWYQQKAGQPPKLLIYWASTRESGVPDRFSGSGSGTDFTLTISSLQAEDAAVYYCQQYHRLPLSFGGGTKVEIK

Variants are written as CDR1, CDR2 and CDR3 of the light chain (limits as in the source). Parent: KSSQSVLYESRNKNSVA, WASTRES, QQYHRLPLS.
Variants here have more than six changes.
Scale: log10 of Kd in nM, estimated from mating counts; low values are strong binders.
Replicates are averaged; those with no signal do not enter the mean.
A pair that was not seen in that replicate is written "nd"; this usually means weak binding, but a binder can also be missed.
In the paper, a design with two or fewer of six values counts as a poor binder.
Values of this round are not directly comparable with the first-round values of the same sequences.
Background: pairings of all light chain designs with three empty control strains gave a value in 4% of cases (median 2.64, 5th percentile 1.59). Values in that range, when seen in few replicates, are hard to tell from nonspecific mating.

For NSSGPMMFESRNKNSVA | HASTRED | QQYERLPLS, the assay gave 0.14, -0.11, -0.12, -0.16, -0.08, 0.04 (mean -0.05).
For HITYGMMVAGRHSSSIA | QAETRAK | QQYDRLPLA, the assay gave 1.03, 0.90, 0.88, 1.83, 1.01, 0.97 (mean 1.10).
For KLSVMTSYLSVNKNSVA | EMTTREN | QQYDRLPLS, the assay gave 1.41, 1.97, 2.49, 1.93, 1.72, 1.19 (mean 1.78).
For QLQLQPLFGANAQHSIA | DVSEKDM | QQYARLPLH, the assay gave 1.17, 1.05, 1.33, 1.02, 1.28, 0.89 (mean 1.12).
For MVTQLMIWGMHLKNSIA | EAQTRVN | QQYDRLPLF, the assay gave 1.42, 1.69, 1.03, 0.84, 1.00, 1.13 (mean 1.18).
For KVSGEMLYESRNKNSVA | HASERES | QDYHRLPLQ, the assay gave 0.00, 0.10, 0.09, -0.19, -0.03, 0.17 (mean 0.02).
For KLSYSVRMESFNKDNVA | ENSTREA | QDYHRLPLS, the assay gave 2.21, 1.92, 2.25, 2.93, 1.93, nd (mean 2.25).
For MVYEATMMGGTARNSIA | NATMRPD | QQYHRLPLI, the assay gave 1.19, 1.13, 1.11, 1.51, 1.51, 1.51 (mean 1.33).
For KLTQTMRFEQKKKQNIA | EVSTRSQ | QQYVRLPLA, the assay gave 1.47, 1.39, 1.76, 0.95, 1.23, 1.28 (mean 1.35).
For KLSQSWLYLSRNMNAVA | EASQRLS | QQYHRLPLS, the assay gave 0.31, -0.03, -0.08, -0.10, -0.14, -0.04 (mean -0.01).
For QLDWYNTTATASANNVA | DVAQRVN | QQYMRLPLM, the assay gave 0.05, 0.13, -0.07, -0.10, -0.11, 0.05 (mean -0.01).
For KISQMFYYESINKNSVA | QKSTREE | QDYHRLPLS, the assay gave 0.89, 0.42, 0.47, 0.38, 0.41, 0.55 (mean 0.52).
For HMSMLTLQGMRHVNSVA | QMTTREN | QQYDRLPLS, the assay gave 1.64, 1.32, 1.42, 2.04, 0.78, 1.82 (mean 1.50).
For QVSNTNMQGHAMEHNVA | EATYAEE | QQYARLPLQ, the assay gave 1.50, 1.06, 1.66, 1.04, 1.44, 1.40 (mean 1.35).
For MISQLYNMGTFAINSVA | QASLRNE | QQYDRLPLI, the assay gave 1.77, 1.39, 1.04, 1.44, 1.13, 2.34 (mean 1.52).
For KLYMSTGYESRAKDSIA | DNSTRGR | QQYHRLPLS, the assay gave 1.48, 0.96, 1.62, 1.20, 1.43, 1.90 (mean 1.43).
For KISQMVKVGSTHSNSIA | EEQTRAK | QQYHRLPLA, the assay gave 0.89, 0.82, 0.89, 0.95, 0.88, 1.23 (mean 0.94).
For NLGYQQDGNGLQRQAVA | NVNMKEY | QQYGRLPLM, the assay gave 0.54, 0.47, 0.26, 0.17, 0.03, 0.35 (mean 0.30).
For MISDLTMYGSRNKNSVA | DLSTRGS | QQYARLPLS, the assay gave 0.39, 0.80, 0.74, 0.66, 1.02, 0.50 (mean 0.68).
For KISQLVNFLGKNKNSVA | QMSTREN | QQYDRLPLS, the assay gave 0.41, 0.62, 0.53, 0.10, -0.13, 0.88 (mean 0.40).
For TISQSFLMENQFKNSVA | QASTREQ | QCYDRLPLS, the assay gave 2.69, 1.56, 1.65, 1.65, 2.08, 2.33 (mean 1.99).
For KLLQEVTGRSQNRNSVA | HNSTRED | QQYDRLPLI, the assay gave 1.83, 2.50, 2.17, nd, 2.25, 1.83 (mean 2.12).
For SFSQTVMYESTHRNNVA | QTSTRES | QQYDRLPLS, the assay gave 0.45, 1.68, 0.64, 1.26, 1.45, nd (mean 1.10).
For TIGQSLMQGIRNRSNVA | EVSQRLN | QQYDRLPLI, the assay gave 0.69, 0.81, 0.44, 0.57, 0.94, 1.15 (mean 0.77).
For MMSQMFEGLSTAKNPVA | QVSTREE | QQYHRLPLS, the assay gave 0.61, 0.75, 0.15, 0.88, 0.64, 0.99 (mean 0.67).
For KLRQLMHIESFNKNNVA | EMTTRES | QSYDRLPLS, the assay gave 0.86, nd, 1.13, 2.46, 1.64, 2.07 (mean 1.63).
For KLSGIMRVESKVSNSIA | EMTTRGE | QQYDRLPLS, the assay gave 1.26, 0.92, 0.74, 1.29, 1.55, 1.36 (mean 1.18).
For IVSQLMLWGLHAKNSIA | EAQTRFN | QQYERLPLF, the assay gave nd, nd, nd, nd, nd, nd.
For MISQIMNMGQFAINSVA | QAEIRNA | QQYDRLPLA, the assay gave 1.47, 3.31, 2.07, 1.85, 1.61, 1.87 (mean 2.03).
For FMSQSWLMEGRNDNSVA | SASTRED | QQYHRLPLS, the assay gave 0.08, 0.27, 0.18, 0.27, 0.09, 0.17 (mean 0.18).
For QLSMITGHVSMSKNNVA | EMETREN | QQYDRLPLS, the assay gave 1.57, 0.83, 1.05, 0.65, 1.06, 0.51 (mean 0.95).
For KLDPSDLGESRNWNSVA | HASTREI | QQYHQLPLS, the assay gave 0.20, -0.02, 0.12, -0.16, 0.07, 0.13 (mean 0.06).
For KISQMIRVGSTHGNSIA | EEVTRAK | QQYHRLPLA, the assay gave nd, 1.83, 1.24, 1.72, 1.51, 1.86 (mean 1.63).
For KLYDNVGTMSHNKQSIA | DMERRED | QQYHRLPLS, the assay gave -0.06, 0.12, -0.15, -0.33, -0.31, -0.10 (mean -0.14).
For KIELDLTRYNNGYSAIA | NETQKAN | QQYSRLPLV, the assay gave 0.50, 0.47, 0.42, 0.63, 0.67, 0.30 (mean 0.50).
For MMSQVTGSGQRHRNNVA | QTSMREI | QQYDRLPLI, the assay gave 1.33, 1.43, 1.03, 1.21, 1.75, 1.57 (mean 1.39).
For KLGYPSYGEVNGKHNIA | EMDQLTF | QQYSHLPLT, the assay gave 2.41, 1.94, 2.46, 1.54, 1.29, 3.06 (mean 2.12).
For FIDGNQYDKYQVENSIA | DEAQIQA | QQYGLLPLS, the assay gave nd, nd, nd, nd, nd, nd.
For KLYMLTGYESRNADSIA | DNSTRGR | QQYHRLPLS, the assay gave 2.64, 2.89, 1.05, 0.90, 2.08, 1.83 (mean 1.90).
For QIAGKLQHGGNQGDNIA | QGVETKN | QQYYTLPLT, the assay gave nd, nd, nd, nd, nd, nd.
For RLWQQMYGFNIHKNAIA | EGKERTW | QQYGRLPLS, the assay gave nd, nd, nd, nd, nd, nd.
For MVTQLMLWGWHAKNSIA | EAQTRLN | QQYDRLPLF, the assay gave nd, nd, nd, nd, nd, nd.
For VLPDPLLMFEMQYHSIA | EGVQRME | QQYERLPLT, the assay gave nd, 1.08, 1.44, 1.22, 1.19, 1.06 (mean 1.20).
For TISQVMNTLTRHGNNVA | DLQNRED | QQYFRLPLS, the assay gave 0.75, 0.17, 0.41, 0.37, 0.26, 0.57 (mean 0.42).
For KLGGESYNSTYAMDAVA | DQNTTYE | QHYSRLPLT, the assay gave nd, nd, nd, nd, nd, nd.
For KVSQSQLGESRMKQSVA | HASQRES | QQYHRLPLS, the assay gave 0.13, 0.27, 0.33, 0.27, 0.28, 0.51 (mean 0.30).
For AVVKMKSEGDYHAANVA | NANLRSD | QQYYRLPLI, the assay gave 0.21, 0.41, 0.12, 0.13, 0.21, 0.34 (mean 0.24).
For KLSQSWEYESRNSNSVA | NASTRET | QQYHRLPLE, the assay gave 0.41, 0.04, -0.07, 0.25, 0.21, 0.24 (mean 0.18).
For KLQQSVLQLWRNANNVA | QASHRES | QQYHRLPLS, the assay gave 0.20, 0.05, 0.09, 0.12, -0.03, 0.18 (mean 0.10).
For KISQMVRVGSTVKNSIA | EEVTRAK | QQYHRLPLA, the assay gave 1.16, nd, nd, 2.29, 1.85, 1.11 (mean 1.60).
For EFSQSGLYESTNKNSVA | GASTREW | SQYHTLPLS, the assay gave 0.70, 0.32, 0.87, 0.85, 0.87, 1.34 (mean 0.83).
For QMTGQLFEQGNRSGPIA | HESMRET | QQYAQLPLT, the assay gave 1.74, 1.36, 1.15, 0.86, 1.00, 1.85 (mean 1.33).

For reference, 5 entries of the list once more:

With KLSVMTSYLSVNKNSVA | EMTTREN | QQYDRLPLS the result was 1.41, 1.97, 2.49, 1.93, 1.72, 1.19 (mean 1.78).
With HITYGMMVAGRHSSSIA | QAETRAK | QQYDRLPLA the result was 1.03, 0.90, 0.88, 1.83, 1.01, 0.97 (mean 1.10).
With EFSQSGLYESTNKNSVA | GASTREW | SQYHTLPLS the result was 0.70, 0.32, 0.87, 0.85, 0.87, 1.34 (mean 0.83).
With KVSGEMLYESRNKNSVA | HASERES | QDYHRLPLQ the result was 0.00, 0.10, 0.09, -0.19, -0.03, 0.17 (mean 0.02).
With KISQMFYYESINKNSVA | QKSTREE | QDYHRLPLS the result was 0.89, 0.42, 0.47, 0.38, 0.41, 0.55 (mean 0.52).